Source: PubChem
Compounds with a hit are over-represented: about 0.43% of the library has one in this group of screens.
GIV Gai3 FP = GIV-Galpha-i interaction inhibition | P08753 | hit rate 0.42% among 210,000 | percent of control (FP), % (no concentration beside the values) | Galpha-i3/FITC-GIV peptide fluorescence polarization, 90 min; active compounds read low; scaled: aluminum fluoride 0%, vehicle 100%;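 active = replicate mean at 85% of control or lower, very high polarization wells dropped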;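 note: wells of about 15 µL received 100 nL stock; the first replicate is given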
HCMV UL50-53 inh = inhibitors of HCMV UL50-UL53 nuclear egress complex interaction | HTRF UL50-UL53 interaction, normalized percent inhibition | inhibition, % (test concentration not listed) | 190,000 compounds, 0.15% hits; in the data active = inhibition above about 27%, passing the limit was not always enough
GIV-Gai FP conf = confirmation of inhibitors of GIV binding to rat Galpha-i3; shares compounds with GIV Gai3 FP; FITC-GIV peptide binding to Galphai3, fluorescence polarization; hits give low values; fluorescence polarization, mP at 100 µM; 580 compounds, 38% hits;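 active = inhibition score of 15 or more, meaning 100 minus mean polarization as percent of control over three replicates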;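 also: lower mP means peptide displaced from Galphai3 so more inhibition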
GIV Gai AS conf = confirmation of inhibitors of GIV binding to human Galpha-i3; AlphaScreen counts at 100 µM; AlphaScreen Galphai3-GIV binding, purified proteins, 90 min; hits give low values; shares compounds with GIV Gai3 FP; 580 compounds, 39% hits;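 active = inhibition score at or above a set limit, where the score is 100 minus the three-replicate mean percent of control signal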
The depositor's hits bear a star; x = not tested or not shown.

Value order – GIV Gai3 FP | HCMV UL50-53 inh | GIV-Gai FP conf | GIV Gai AS conf
- C=CCn1c(=O)[nH]c2nc3cc(N=CN(C)C)ccc3nc2c1=O
    104 | -92 | x | x
- C=CCn1c(=O)[nH]c2nc3cc(N=CN(C)C)c(C)cc3nc2c1=O
    -16* | x | x | x
- COc1ccc(C2CC(c3cc4ccccc4oc3=O)=Nc3ccccc3N2)cc1 (stereo not given)
    x | -37 | x | x
- CCOC(=O)c1[nH]c(CSc2cccc[n+]2[O-])c(C(=O)OCC)c1C
    x | 62* | x | x
- CCOC(=O)c1[nH]c(CSc2nnc3ccccn23)c(C(=O)OCC)c1C
    x | -22 | x | x
- c1cncc(-c2nnc3sc(-c4ccncc4)nn23)c1
    104 | -29 | x | x
- NC(=O)c1ccccc1NC(=O)c1ccc(C(=O)N(C2CCCCC2)C2CCCCC2)cc1
    102 | -13 | x | x
- Fc1cccc(F)c1-c1nc2c(cnn2Cc2cccs2)[nH]1
    x | -13 | x | x
- CN(C)S(=O)(=O)c1ccc2c(c1)/C(=C/c1cc3c([nH]1)CCCC3)C(=O)N2
    -21* | -18 | x | x
- O=C1Nc2ccc(Br)cc2/C1=C/c1cc2c([nH]1)CCCC2
    x | -3 | x | x
- CCN(CC)c1nc2ccccc2n(Cc2cccc(OC)c2)c1=O
    x | -12 | x | x
- CCOc1ccc(CNC(=O)C2CCN(C(=O)c3ccc(-n4ccc5ccccc54)s3)CC2)cc1
    112 | x | x | x
- COCCN1C(=O)/C(=C/c2cc(OC)c(O)cc2Br)SC1=S
    -61* | -39 | x | x
- COc1cc(OC)c(OC)cc1/C=C1/SC(=S)N(CC(=O)O)C1=O
    134 | -51 | x | x
- O=C(CN1C(=O)COc2ccc(Cl)cc21)Nc1cccc(C(=O)O)c1
    105 | -31 | x | x
- CN1C(=O)/C(=C/C=C2/CCCN2C)N(C)C1=S
    183 | -188 | x | x
- C=CCN1C(=O)/C(=C\C=C2/CCCN2C)SC1=S
    -61* | -78 | x | x
- Nc1c(C(=O)Nc2ccccn2)sc2nc(-c3cccs3)cc(C(F)(F)F)c12
    43* | x | 54 | 56627
- Cc1cccc(NC(=O)c2sc3nc(-c4cccs4)cc(C(F)(F)F)c3c2N)n1
    114 | x | x | x
- Cc1cc(C)cc(N(C(=O)C(C)(C)C)C2C=CS(=O)(=O)C2)c1 (stereo not given)
    103 | -24 | x | x
- O=C(c1ccccc1)c1ccccn1
    77* | -20 | 72 | 34253
- NC(=O)c1ccccn1
    x | -2 | x | x
- N#Cc1c(/N=C/c2ccccc2)oc(-c2ccccc2)c1-c1ccccc1
    113 | x | x | x
- N#Cc1c(/N=C/c2ccc(Cl)c(Cl)c2)oc(-c2ccccc2)c1-c1ccccc1
    73* | x | 12* | 46826
- CCCS(=O)(=O)N1CCCC(C(=O)NC(C)C)C1 (stereo not given)
    107 | -31 | x | x
- C=CCNC(=O)C1CCCN(S(=O)(=O)CCC)C1 (stereo not given)
    84* | 1 | 64 | 51209
- c1ccc(COn2c3c(c4c5nonc5ccc42)CCCC3)cc1
    52* | -34 | 49* | 18180*
- CCOC(=O)c1c(C)n(OCc2ccccc2)c2ccc3nonc3c12
    99 | x | x | x
- CCOc1ccc(-c2cc3c(SCC(=O)c4ccc(C)cc4C)nccn3n2)cc1
    99 | 7 | x | x
- Clc1ccc2c(c1)NNc1nncn1-2
    101 | -294 | x | x
- O=C(O)CSc1nnc2n1-c1ccc(Cl)cc1NN2
    47* | -265 | 39* | 6321*
- CCOC(=O)c1sc(C)nc1C(F)(F)F
    99 | -9 | x | x
- Oc1ccccc1C(Nc1ccccn1)c1ccc2cccnc2c1O (stereo not given)
    x | -62 | x | x
- Oc1ccc2ncccc2c1C(Nc1ccccn1)c1ccco1 (stereo not given)
    79* | -4 | 69 | 5282*
- Cc1cccc(CNC(=O)c2ccc(Cn3c(=O)c4cccn4c4cccnc43)cc2)c1
    107 | x | x | x
- COc1ccc(-c2nc3c(=O)n(C)c(=O)nc-3n(C)n2)cc1OC
    57* | 74 | 42* | 27053*
- COc1ccc(-n2ccc(=O)c(-c3nc(-c4ccc(F)cc4)no3)n2)cc1
    101 | x | x | x
- Cn1nc(-c2ccc(F)cc2)nc2c(=O)n(C)c(=O)nc1-2
    15* | 83* | 28* | 22497
- COc1ccc(-c2c(-c3ccc(OC)c(OC)c3)c(C)n(C)c2C)cc1OC
    118 | -44 | x | x
- CC(C)Cn1nnc2c(=O)oc3ccccc3c21
    106 | -6 | x | x
- O=C(CSc1nnc2sc3ccccc3n12)NCc1ccccc1
    x | -1 | x | x
- O=C(O)c1cc(-c2ccc(C(F)(F)F)cc2)nc2n[nH]c(-c3ccccc3)c12
    108 | x | x | x
- O=C(Nc1ccccc1Br)c1cc(S(=O)(=O)NCc2ccc3c(c2)OCO3)ccc1F
    110 | x | x | x
- O=c1[nH]c(C2CCCN(S(=O)(=O)c3ccccc3)C2)nc2c1nnn2Cc1ccc(OC(F)(F)F)cc1 (stereo not given)
    98 | -15 | x | x
- O=C(NCc1nc2ccccc2[nH]1)c1cccc(Cl)c1
    103 | -10 | x | x
- CCC(C)NC(=O)c1[nH]c2cc(C)ccc2c1Sc1ccc(Cl)cc1 (stereo not given)
    101 | -14 | x | x
- Cc1ccc2c(Sc3ccc(Cl)cc3)c(C(=O)NC(C)C)[nH]c2c1
    57* | -16 | 60 | 42527
- O=c1sc2ccccc2n1Cc1ccccc1
    x | 4 | x | x
- O=c1sc2ccccc2n1Cc1nnc(-c2ccccc2)o1
    92 | 19 | 74 | 33349
- COc1ccc2oc(=O)cc(O)c2c1
    x | -9 | x | x
- CC(=O)Nc1ccc2c(c1)C1C=CCC1C(C(=O)O)N2 (stereo not given)
    188 | -58 | x | x
- O=C(O)C1Nc2c(I)cccc2C2C=CCC12 (stereo not given)
    43* | 14 | 36* | 1672*
- COc1cc(/C=C2\SC(=O)N(C)C2=O)ccc1Oc1ccc([N+](=O)[O-])cc1[N+](=O)[O-]
    96 | -20 | x | x
- COc1ccc(C=C2C(=O)NC(=O)NC2=O)cc1Oc1ccc([N+](=O)[O-])cc1[N+](=O)[O-]
    87 | 51* | 60 | 15324*
- CC(C)(O)CC1(CO)CCCCC1
    92 | -4 | 68 | 46516
- COc1ccc(S(=O)(=O)N(CCC(=O)O)Cc2ccccc2)cc1
    x | 3 | x | x
- Cc1ccc(NC(=O)c2sc3nc4c(c(-c5ccco5)c3c2N)CCCC4)cc1
    103 | x | x | x
- Cc1ccc(NC(=O)c2sc3nc4c(c(-c5ccco5)c3c2N)CCC4)cc1
    76* | x | 65 | 50669
- O=C(CSC1=NS(=O)(=O)c2ccccc21)Nc1ccccc1
    66* | -17 | 59 | 10980*
- COc1ccc(CCNC(=O)CSC2=NS(=O)(=O)c3ccccc32)cc1OC
    97 | -16 | x | x

GIV Gai AS conf: entries above that show a hit
| canonical_smiles | GIV Gai3 FP | GIV-Gai FP conf | GIV Gai AS conf |
| --- | --- | --- | --- |
| c1ccc(COn2c3c(c4c5nonc5ccc42)CCCC3)cc1 | 52* | 49* | 18180* |
| O=C(O)CSc1nnc2n1-c1ccc(Cl)cc1NN2 | 47* | 39* | 6321* |
| Oc1ccc2ncccc2c1C(Nc1ccccn1)c1ccco1 (stereo not given) | 79* | 69 | 5282* |
| COc1ccc(-c2nc3c(=O)n(C)c(=O)nc-3n(C)n2)cc1OC | 57* | 42* | 27053* |
| O=C(O)C1Nc2c(I)cccc2C2C=CCC12 (stereo not given) | 43* | 36* | 1672* |
| COc1ccc(C=C2C(=O)NC(=O)NC2=O)cc1Oc1ccc([N+](=O)[O-])cc1[N+](=O)[O-] | 87 | 60 | 15324* |
| O=C(CSC1=NS(=O)(=O)c2ccccc21)Nc1ccccc1 | 66* | 59 | 10980* |

The results go on:
Value order – GIV Gai3 FP | HCMV UL50-53 inh | GIV-Gai FP conf | GIV Gai AS conf
- Cc1ccc(S(=O)(=O)NC(C)C(c2cccs2)N2CCN(C)CC2)cc1 (stereo not given)
    102 | -9 | x | x
- COc1ccc(-c2nc(-c3ccc4c(c3)[nH]c(=O)c(=O)n4C)no2)cc1OC
    86 | 4 | 81 | 27124
- COc1ccc(-c2nc(-c3ccc4c(c3)[nH]c(=O)c(=O)n4C)no2)cc1
    103 | 16 | x | x
- COc1ccc(Br)cc1CSCCC#N
    107 | -31 | x | x
- O=c1c2ccccc2c2ccccc2c(=O)n1-c1ccccc1
    102 | x | x | x
- O=c1c(=N\O)/c(=N/O)c(=O)c2ccccc12
    59* | 97* | 64* | 4729*
- COc1ccc(CCNC(=O)CSc2nc(O)cc(=O)[nH]2)cc1OC
    109 | 1 | x | x
- CCn1c(=O)c(C(=O)Nc2ncccn2)c(O)c2ccccc21
    107 | 3 | x | x
